Reference: paper PMC11737796 (PLOS ONE, 2025)

Molecular target: T1, recombinant murine RORγt LBD (Mus musculus, UniProt P51450)
T1 construct: 10nM purified HN-AVI-GST-TCS-mRORγ(aa256-516) was mixed with
T1 sequence (P51450 256-516): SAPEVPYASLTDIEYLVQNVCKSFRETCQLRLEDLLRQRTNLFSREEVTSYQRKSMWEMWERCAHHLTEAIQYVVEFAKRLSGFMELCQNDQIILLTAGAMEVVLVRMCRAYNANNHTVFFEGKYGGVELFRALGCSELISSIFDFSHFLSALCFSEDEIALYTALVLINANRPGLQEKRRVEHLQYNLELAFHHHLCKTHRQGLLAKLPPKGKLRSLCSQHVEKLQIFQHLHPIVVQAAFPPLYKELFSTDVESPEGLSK
Test: Murine RORγt radioligand competition binding assay
Conditions: raw points of replicate experiments
Procedure: The assay was run in white/clear polystyrene flat-bottom 384-well plates (Greiner, cat. No. 781095). Assays were carried out in 40 μl reaction volumes. 0.125 μl of a fixed concentration range of test ligands dissolved in DMSO were added to assay plates using an acoustic liquid dispenser.
The raw data from the radio-ligand and co-factor recruitment assays were transformed to % effect using the equation:
Compound % effect = 100*[(X-min)/(max-min)]
where X represents the effect in the presence of test compound and max and min are the effects in presence of the maximum and minimum controls respectively.
The data was plotted to generate concentration response profiles and the concentration-response curves were fitted to the data using the non-linear regression analysis; 4 parameter logistic smart fit method in the Analyser application of the Genedata® Screener software (Genedata, Inc., Basel, Switzerland). […] Ki was calculated from the IC50 value using the equation Ki = IC50/1+[L]/Kd)

- Mouse ligand binding Response (%) (-LOG10(Concentration) 5): -101.256%
- Mouse ligand binding Response (%) (-LOG10(Concentration) 8.5): -10.569%
SMILES: CC(=O)N1Cc2cc(S(C)(=O)=O)ccc2[C@@H]1C(=O)Nc1ccc(C(O)(C(F)(F)F)C(F)(F)F)cc1 [Compound 5]
